How the values were obtained:
[1] = target: T1, Histone deacetylase 8 (Homo sapiens, UniProt Q9BY41); assay: Inhibition of human recombinant HDAC8
T1 sequence (Q9BY41 whole entry): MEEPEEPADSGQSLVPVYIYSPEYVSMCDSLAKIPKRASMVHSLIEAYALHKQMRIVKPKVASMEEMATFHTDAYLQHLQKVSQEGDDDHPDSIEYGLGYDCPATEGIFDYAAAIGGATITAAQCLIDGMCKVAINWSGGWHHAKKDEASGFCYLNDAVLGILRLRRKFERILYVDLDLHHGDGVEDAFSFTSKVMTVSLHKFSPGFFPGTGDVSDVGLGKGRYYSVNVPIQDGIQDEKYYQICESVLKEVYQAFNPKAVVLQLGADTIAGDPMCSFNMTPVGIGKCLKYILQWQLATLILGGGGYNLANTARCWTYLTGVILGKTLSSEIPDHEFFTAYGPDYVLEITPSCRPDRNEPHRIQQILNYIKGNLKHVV

[2] = target: T2, Protein deacetylase HDAC6 (Homo sapiens, UniProt Q9UBN7); assay: Inhibition of human recombinant HDAC6
T2 sequence (Q9UBN7 whole entry): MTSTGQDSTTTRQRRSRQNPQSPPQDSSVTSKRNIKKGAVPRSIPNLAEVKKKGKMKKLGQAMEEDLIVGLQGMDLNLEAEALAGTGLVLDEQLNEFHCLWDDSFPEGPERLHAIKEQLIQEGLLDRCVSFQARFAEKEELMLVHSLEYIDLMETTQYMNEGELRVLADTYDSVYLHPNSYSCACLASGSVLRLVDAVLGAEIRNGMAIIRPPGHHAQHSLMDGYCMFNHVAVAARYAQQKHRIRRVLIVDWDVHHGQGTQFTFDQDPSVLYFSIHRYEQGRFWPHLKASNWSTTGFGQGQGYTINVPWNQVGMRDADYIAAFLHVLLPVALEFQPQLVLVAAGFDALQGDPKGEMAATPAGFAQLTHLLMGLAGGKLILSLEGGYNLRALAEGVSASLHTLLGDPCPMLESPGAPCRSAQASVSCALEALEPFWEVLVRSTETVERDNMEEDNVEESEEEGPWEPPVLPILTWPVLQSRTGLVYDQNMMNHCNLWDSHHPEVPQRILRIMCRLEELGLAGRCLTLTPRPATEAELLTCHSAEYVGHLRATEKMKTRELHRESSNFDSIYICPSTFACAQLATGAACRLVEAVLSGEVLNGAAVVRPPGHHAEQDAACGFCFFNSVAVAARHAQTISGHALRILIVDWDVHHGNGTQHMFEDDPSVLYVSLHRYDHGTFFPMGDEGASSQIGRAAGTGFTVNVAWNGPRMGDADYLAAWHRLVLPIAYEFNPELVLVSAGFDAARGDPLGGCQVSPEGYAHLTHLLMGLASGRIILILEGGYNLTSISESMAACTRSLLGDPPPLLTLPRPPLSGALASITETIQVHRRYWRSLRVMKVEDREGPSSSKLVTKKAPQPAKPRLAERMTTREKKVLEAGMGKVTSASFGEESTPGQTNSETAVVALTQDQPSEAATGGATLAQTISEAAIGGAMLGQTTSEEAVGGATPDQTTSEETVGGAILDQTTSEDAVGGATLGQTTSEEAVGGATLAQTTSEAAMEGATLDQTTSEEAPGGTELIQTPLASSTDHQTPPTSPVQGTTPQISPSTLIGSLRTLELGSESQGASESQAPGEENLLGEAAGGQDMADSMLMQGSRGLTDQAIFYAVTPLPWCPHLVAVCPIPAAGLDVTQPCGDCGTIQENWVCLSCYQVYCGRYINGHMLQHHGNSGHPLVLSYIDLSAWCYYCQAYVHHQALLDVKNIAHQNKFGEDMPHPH
Procedure, shortened: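 Purified recombinant human HDAC-2 or HDAC-6 at known enzyme concentration with tBOC(Ac)-Lys-AMC as substrate. IC50 is the mean of at least three experiments.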

| SMILES | IC50 [1] | IC50 [2] |
| --- | --- | --- |
| CCN1CCC[C@@H](n2c(C)nc(C)c2-c2cccc(/C=C/C(=O)NO)c2)C1 | 500 nM | – |
| O=C(/C=C/c1cccc(-c2nc3ccccc3n2CCN2CCCC2)c1)NO | – | 63 nM |
